This passage reports protection from apoptosis results from PubChem BioAssay AID435005 (Broad Institute, 2010).

The entries are a selection whose mix differs from that of the whole data set. Activity calls are given as the source filed them.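 How the source made its calls: active means Every replicate reaches about 75%, or at least half do and their mean reaches it too (limit read from the data); inconclusive means At least half of replicates reach the limit but their mean does not; inactive means Under half of replicates reach the limit.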

A short description of this assay: inhibitors of cytokine-induced beta cell apoptosis, primary screen, luminescence (AID 435005).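 Further: 0% = cytokine-treated negative control wells and 100% = positive control rescue; higher means more ATP so stronger rescue from cytokine killing.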 Conditions: INS-1E cytokine-induced death, ATP luminescence, 48 h; active compounds read high; percent of positive-control rescue, neutral wells zero; concentration not given here.
As for `C[N+]1=C2C=CC=CC=C2SC12C([N+](=O)[O-])=CC([N+](=O)[O-])=C[C-]2[N+](=O)[O-]` (configuration not stated), the protection from apoptosis was active: 104%.

For the compound `O=[N+]([O-])c1cc([N+](=O)[O-])c(-c2ccn[nH]2)s1`, the protection from apoptosis is active: 106%.
